Screening results from PubChem.
ARNT TACC3 PPI – ARNT/TACC3 interaction disruption. Q9Y6A5. AlphaScreen His-ARNT PAS-B/GST-TACC3 binding, luminescence; TACC3 fragment carries E629A point mutation. inhibition, % at 9.99 µM. 390,000 compounds, 0.66% hits. AID 623870;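 active means mean inhibition of replicates at least 50% and at least half of replicates each reaching 50%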
PglD DTNB – blocks C. jejuni PglD acetyltransferase activity. inhibition, % at 12.5 µM. 360,000 compounds, 0.098% hits. purified PglD enzyme, DTNB colorimetric CoA detection; in the data active means inhibition above about 16%, passing the limit was not always enough
PDI turbidity – PDI (human) enzyme inhibition; 350,000 compounds, 0.052% hits; PDI insulin aggregation turbidity, A650, 90 min; inhibition, % at 10 µM;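 active means mean inhibition across replicates of 30% or more, whatever share of single replicates reach that level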
FGF22 binding – FGF22 (human) thermal shift binding. Q9HCT0. recombinant FGF22 thermal shift, SYPRO orange fluorescence; percent of sucrose octasulfate shift, DMSO zero. activity (Tm shift, normalised), % at 9.99 µM. 340,000 compounds, 1.5% hits. AID 651658;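 active means mean Tm shift, scaled 0 neutral to 100 positive control, at about 1.3% or above, every replicate too, limit read from the data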
UUG fidelity – yeast start codon fidelity modulation | S. cerevisiae UUG-firefly luciferase reporter, luminescence/redox ratio | activity score, % at 18.7 µM | 0.13% of 350,000 active | AID 602363;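 active means replicate mean at a twofold rise or more, about +100% in these data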;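 further: firefly luciferase made from a UUG start codon reports start codon fidelity; reporter light over untreated wells divided by growth signal over untreated wells; some hits fall short of that in this replicate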
ERp5 inh – ERp5 (human) disulfide isomerase inhibition. ERp5 insulin aggregation, absorbance 650 nm, 90 min. inhibition, % at 9.99 µM. 350,000 compounds, 0.05% hits;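 active means mean replicate inhibition above about 25%, with every replicate also reaching it, limit read from the data, passing the limit was not always enough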
Each line names hits and unclear results; the compound was inactive in the other large screens; ! = not confirmed by another sample. Shown are actives, neighbours in structure and some others; about 1.9% of the full set was active somewhere.

C[C@@H]1CN([C@@H](C)CO)C(=O)c2cc(NC(=O)c3ccccc3)ccc2O[C@@H](C)CCCCO[C@H]1CN(C)C(=O)c1ccccc1	none (no result: PDI turbidity, UUG fidelity)
COc1cc(N)c2ncccc2c1OC	none
COc1cc(NCCCCC(C)N)c2nccc(C)c2c1 (stereo not given)	none (no result: ARNT TACC3 PPI)
COc1cc(NC(C)CCCNC(C)C)c2ncccc2c1OC (stereo not given)	ARNT TACC3 PPI 59
COc1cc(NCCCCCCN)c2ncccc2c1OC	ARNT TACC3 PPI 52 (no result: PglD DTNB, UUG fidelity)
CN(C)CCn1nnnc1SCC1=C(C(=O)O)N2C(=O)[C@@H](NC(=O)Cc3csc(N)n3)[C@H]2SC1	none
CO[C@@]1(NC(=O)CSCC#N)C(=O)N2C(C(=O)O)=C(CSc3nnnn3C)CS[C@@H]21	FGF22 binding 1.5
Cn1c(=O)c(C(=O)CSc2ccccc2)c(N)n(Cc2ccccc2)c1=O	FGF22 binding 43 (no result: PglD DTNB, UUG fidelity)
COC(=O)C1=C(C)NC(=O)/C1=C\c1cc(C)n(-c2ccccc2)c1C	FGF22 binding 43 (no result: PglD DTNB, UUG fidelity)
COC(=O)C1=C(C)NC(=O)/C1=C\c1cc(C)n(-c2cc(C)cc(C)c2)c1C	none (no result: PglD DTNB, FGF22 binding, UUG fidelity, ERp5 inh)
Cc1ccccc1-c1ccc([C@H]2[C@@H](CO)N3C(=O)CN(C(=O)c4ccccn4)C[C@@H]23)cc1	none (no result: ARNT TACC3 PPI, PglD DTNB, PDI turbidity, FGF22 binding, UUG fidelity)
O=C(CCS(=O)(=O)c1ccccc1)N(CCCN1CCOCC1)c1nc2ccccc2s1	PDI turbidity 38 (no result: PglD DTNB, FGF22 binding, UUG fidelity)
Cc1ccc(S(=O)(=O)CCC(=O)N(CCCN2CCOCC2)c2nc3ccccc3s2)cc1	none
O=C(CNS(=O)(=O)c1ccccc1)N/N=C/c1ccc(O)cc1	FGF22 binding 43 (no result: ARNT TACC3 PPI, PglD DTNB, UUG fidelity)
CCN(CC(=O)Nc1ccc(NC(C)=O)cc1)C(=O)C(c1ccccc1)c1ccccc1	FGF22 binding 43 (no result: PglD DTNB, UUG fidelity)
COc1ccc(CNC(=O)C[C@@H]2CC[C@H](NC(=O)CN(C)C)[C@H](CO)O2)cc1	none (no result: PDI turbidity)
Cc1oncc1-c1csc(-c2ccccc2Cl)n1	none
ClCc1csc(-c2ccccc2Cl)n1	FGF22 binding 43
COc1cccc(-c2nc(CCl)cs2)c1	none
COc1ccc(-c2nc(CCl)cs2)cc1	FGF22 binding 43 (no result: PglD DTNB, UUG fidelity)
CC1=C(C(=O)N2CCOCC2)C(c2ccc(OC(F)F)cc2)NC(=S)N1c1ccccc1 (stereo not given)	FGF22 binding 43 (no result: PglD DTNB, UUG fidelity)
CC1=C(C(=O)N2CCOCC2)C(c2ccc(Br)cc2)NC(=S)N1c1ccccc1 (stereo not given)	none (no result: PglD DTNB, UUG fidelity)
CC(C)[C@H](NC(=O)OCc1ccccc1)C(=O)OCC(=O)NCc1ccco1	FGF22 binding 43 (no result: ARNT TACC3 PPI)
CC(C)[C@H](NC(=O)c1ccco1)C(=O)OCC(=O)Nc1ccc(F)cc1	none (no result: PglD DTNB, UUG fidelity)
CC(C)C(NC(=O)c1ccco1)C(=O)OCC(=O)Nc1ccc(C(N)=O)cc1 (stereo not given)	FGF22 binding 43 (no result: PglD DTNB, UUG fidelity)
Cc1ccccc1-c1ccc2c(c1)O[C@@H](CN(C)C(=O)C1CC1)[C@@H](C)CN([C@H](C)CO)S2(=O)=O	none (no result: PDI turbidity)
C[C@H]1CN([C@@H](C)CO)C(=O)c2cc(NS(C)(=O)=O)ccc2O[C@@H]1CN(C)S(=O)(=O)c1ccc(F)cc1	none (no result: PDI turbidity)
O=C(Nc1ccc2c(c1)OCCO2)c1oc2ccccc2c1NC(=O)C1CC1	FGF22 binding 43 (no result: PglD DTNB, UUG fidelity)
C[C@@H]1CN([C@@H](C)CO)C(=O)c2cccc(NC(=O)Nc3ccc4c(c3)OCO4)c2O[C@H]1CN(C)CC1CC1	none (no result: PDI turbidity)
CCSc1nnc(NC(=O)CSc2nncc(=O)n2N)s1	ARNT TACC3 PPI 70
CCc1nnc(NC(=O)CSc2nncc(=O)n2N)s1	none
O=C(C[C@@H]1CC[C@@H]2[C@H](COC[C@@H](O)CN2S(=O)(=O)c2ccccc2)O1)NCCN1CCCC1	ERp5 inh 43 (no result: ARNT TACC3 PPI, PglD DTNB, PDI turbidity, FGF22 binding, UUG fidelity)
O=C(C[C@H]1CC[C@H]2[C@@H](COC[C@@H](O)CN2S(=O)(=O)c2ccccc2)O1)NCCN1CCCCC1	none (no result: PDI turbidity)
Cc1ccc(NC(=O)CO/N=C(\N)c2ccccc2)cc1C	FGF22 binding 43
CC(C)(C)c1ccc(NC(=O)CON=C(N)c2ccccc2)cc1	none
Cc1ccc(SCC(=O)Nc2nnc(-c3ccco3)o2)cc1	ARNT TACC3 PPI 48
O=C(CSc1ccc(F)cc1)Nc1nnc(-c2ccco2)o1	ARNT TACC3 PPI 49
CO[C@@H]1CN(C)C(=O)c2cc(NC(=O)C3CC3)ccc2OC[C@H](C)N(C(=O)c2ccccc2)C[C@@H]1C	none (no result: PDI turbidity)
Cc1noc(C)c1S(=O)(=O)N(C)C[C@@H]1OCCCC[C@H](C)Oc2ccc(NS(=O)(=O)c3ccc(Cl)cc3)cc2C(=O)N([C@H](C)CO)C[C@@H]1C	none (no result: PDI turbidity)
C[C@@H]1CN([C@@H](C)CO)C(=O)c2cc(NC(=O)Nc3ccc(F)cc3)ccc2O[C@@H](C)CCCCO[C@@H]1CN(C)Cc1ccncc1	none (no result: PDI turbidity, ERp5 inh)
CC1(C(=O)NS(=O)(=O)Cc2cccc(Cl)c2)CCN1C(=O)c1cccc(F)c1 (stereo not given)	none (no result: ARNT TACC3 PPI)
Cc1noc(C)c1C(=O)N1CCC1(C)C(=O)NS(=O)(=O)Cc1cccc(Cl)c1 (stereo not given)	FGF22 binding 44 (no result: ARNT TACC3 PPI)
Cc1c(NC(=O)c2ccc(N(C)S(=O)(=O)c3ccccc3)cc2)c(=O)n(-c2ccccc2)n1C	FGF22 binding 43
C[C@H]1CN([C@@H](C)CO)C(=O)c2cc(NC(=O)Nc3ccccc3)ccc2O[C@@H]1CN(C)S(=O)(=O)c1ccc(Cl)cc1	none (no result: PDI turbidity)
CS(=O)(=O)c1cccc(-c2csc(N3CCC(C(N)=O)CC3)n2)c1	FGF22 binding 43
O=c1c2ccccc2sn1-c1cccc(Cl)c1	none (no result: ARNT TACC3 PPI)
O=c1c2ccccc2sn1-c1ccccc1	UUG fidelity 195 (no result: FGF22 binding, ERp5 inh)
Cc1ccc(-n2sc3ccccc3c2=O)cc1S(=O)(=O)N1CCCCC1	PglD DTNB 22
C[C@H](CO)N1C[C@H](C)[C@H](CN(C)CC2CC2)Oc2c(NC(=O)c3ccc(-c4nccs4)cc3)cccc2C1=O	none (no result: ARNT TACC3 PPI, PglD DTNB, PDI turbidity, UUG fidelity)
CO[C@H]1CN(C)C(=O)c2ccc(NS(=O)(=O)c3ccccc3)cc2OC[C@H](C)N(C(=O)NC(C)C)C[C@H]1C	none (no result: PDI turbidity)
CCOc1ccccc1NC(=O)C(NCC1(N2CCCCC2)CCCCC1)c1ccccc1 (stereo not given)	FGF22 binding 44 (no result: PglD DTNB, UUG fidelity)
O=C(C1=C[C@@H](c2coc3ccccc3c2=O)C[C@@H](OCc2ccc(CO)cc2)O1)N1CCN(Cc2ccccc2)CC1	FGF22 binding 1.4
O=C(O)/C=C/c1ccc(S(=O)(=O)Nc2ccccc2C(=O)Nc2ccc(F)cc2)cc1	ARNT TACC3 PPI 47 (no result: FGF22 binding)
O=C(Nc1cc(S(=O)(=O)N2CCCCC2)ccc1O)c1ccccc1NS(=O)(=O)c1ccc(F)cc1	FGF22 binding 1.4!
N#C[C@H]1[C@H](c2ccc(C3=CCCCC3)cc2)[C@@H](CO)N1C(=O)NC1CCCCC1	none (no result: PDI turbidity)
CC(C)=N/N=c1\scc(C)n1Cc1ccco1	FGF22 binding 43 (no result: PglD DTNB, UUG fidelity)
N/C(Cc1cccc2ccccc12)=N\OC(=O)c1ccc2c(c1)OCO2	FGF22 binding 44
N/C(=N\OC(=O)c1ccc2c(c1)OCO2)c1cccc(Br)c1	none
